Source: patent US20090062386A1, “Simulants of Toxants for Training and Testing” (published 2009)

Tests used:
[1] = relative to air
[2] = Surface tension; conditions: simulants and EL, Table IV
[3] = Kinematic viscosity
[4] = Density of simulants and toxants; conditions: simulants and EL, Table IV
[5] = Volatility (vapor concentration); conditions: simulants and EL, Table IV
[6] = Vapor pressure by laboratory analysis
[7] = Accelerated shelf-life testing, TA and EL by HPLC; conditions: aged simulant samples, data not shown

SMILES | vapor density [1] | Surface Tension [2] [dynes/cm] | viscosity ([3]; at 20° C.) [cSt] | Kinematic Viscosity ([3]; simulants and EL, Table IV) [cSt] | Density [4] [g/mL] | Volatility [5] [mg/m^3] | Vapor Pressure ([6]; @ 25° C., simulants and EL, Table IV) [Torr] | vapor pressure Pv ([6]; @ 30° C.) [Torr] | chemical stability of EL [7] | viscosity ([3]; at 25° C.) [cSt] | vapor pressure Pv ([6]; @ 25° C.) [Torr]
CCOC(=O)C(C)O (stereo not drawn) | 4.07 | 30.0 | 2.63 | 2.63 | 1.03 | 17130 | 3.7 | 5 | stable |  | 
CC(=O)OCC(COC(C)=O)OC(C)=O | 7.52 |  |  |  |  |  |  |  |  | 14.7 | 0.0025
